Binding of CDR-mutated scFvs to a peptide of the spike HR2 region

Target: peptide PDVDLGDISGINAS, taken from heptad repeat 2 (HR2) of SARS-CoV-2 spike.

Parent scFv Ab-95: VH joined to VL by a 15-residue (Gly4Ser)3 linker. Changes lie in the light chain CDRs alone.
VH: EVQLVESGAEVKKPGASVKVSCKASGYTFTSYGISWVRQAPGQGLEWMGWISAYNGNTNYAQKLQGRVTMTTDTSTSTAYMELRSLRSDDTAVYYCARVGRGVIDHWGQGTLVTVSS
VL: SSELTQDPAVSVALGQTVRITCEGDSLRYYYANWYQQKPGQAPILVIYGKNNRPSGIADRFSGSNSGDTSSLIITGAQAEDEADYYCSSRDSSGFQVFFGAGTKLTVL

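The starting antibody came from a phage panning campaign against this peptide. Library AAYL52 holds single substitutions and randomly drawn double and triple substitutions in the CDRs. The assay is AlphaSeq: two haploid yeast populations carry antibody and antigen on their surface. After mating in shaken culture at 30 °C for 16 h, diploids were selected and their barcode pairs sequenced. The ratio of observed to expected reads was calibrated, replicate by replicate, on BCL2-family standards whose Kd was known from biolayer interferometry. Each pool was mated in three replicate cultures.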

Each variant is given by its three light chain CDRs, as the data file delimits them; those of the parent are EGDSLRYYYAN, GKNNRPS, SSRDSSGFQVF.
This list gathers variants with a substitution at F98 (VL, numbered from residue 1).
The Kd shown is the geometric mean over detected replicates; a lower Kd is a better binder.
"nd" marks a missing value. The strain was present, yet no cells mated with the target were sequenced in any replicate, which points to weak or no binding.
Background: pairings of library AAYL52 with three empty control strains gave a value in 28% of cases (median 8.2 µM, 5th percentile 800 nM). Values in that range, when seen in few replicates, are hard to tell from nonspecific mating.

EGDCLRYYYAN / GKNNRPS / SSRDSSMFQVG: 6.7 µM (3 of 3 replicates).
EGDSERYYYAN / GKNNRPS / SSRDSSNFQVV: 650 µM (1 of 3 replicates).
EGDSLRYYYAN / GKNYFPS / SSRDSSGFQVV: 20 µM (3 of 3 replicates).
EGDSLRYYYAN / HKNNRPS / YSRDSSGFQVA: 2.1 µM (1 of 3 replicates).
EGDYLRYYYAN / IKNNRPS / SSRDSSGFQVN: 13 µM (1 of 3 replicates).
EGDYLRYYYAN / GKNNRMS / SSRDSSGFQVS: 1.7 µM (1 of 3 replicates).
NGDSLREYYAN / GKNNRPS / SSRDSSGFQVC: 970 nM (3 of 3 replicates).
EGTSLRYYYAN / GKNNMPS / SSRDSSGFQVS: 28 µM (1 of 3 replicates).
EGDSLRYYYAN / GKNNRPG / SSRDSSGFCVY: 430 nM (3 of 3 replicates).
EGDSLRYYYAE / GKNNRPS / SSRDWSGFQVA: 2.2 µM (2 of 3 replicates).
EGDQLRYYYRN / GKNNRPS / SSRDSSGFQVS: nd (0 of 3 replicates).
EGDSLRYYEAN / GHNNRPS / SSRDSSGFQVW: 8.2 nM (3 of 3 replicates).
EGDSLRYYYAN / GKNNRPS / SSRDSSGFQVV: 930 nM (3 of 3 replicates).
EGDSLRYYYAN / GKNNRPS / SSRDYSGFDVM: 85 nM (3 of 3 replicates).
EGDSLRYYYAN / GKNNRPS / SPRDSSGFQVK: 1.4 µM (3 of 3 replicates).
EGDSLRYYYAN / FKNNWPS / SSRDSSGFQVL: 12 µM (2 of 3 replicates).
EGDSLRYYYAN / NKNNRPS / SWRDSSGFQVD: 15 µM (1 of 3 replicates).
EGDSLRYYYAN / TKNNRPS / SSRRSSGFQVT: 3.3 µM (1 of 3 replicates).
EGDSLRYYYAN / GKNNRPS / CSRFSSGFQVL: 520 nM (3 of 3 replicates).
EGDTLRYYYAN / GKNNRPS / SSRDSSGDQVK: 3.5 µM (2 of 3 replicates).
EGDSLRYYYAN / GKNNRPS / SSRDSSKFQVY: 110 nM (3 of 3 replicates).
EGDSLRYYYAN / GKNNRPS / SSRDLFGFQVT: 26 µM (1 of 3 replicates).
EGDSLRYYDAN / GKNNRCS / SSRDSSGFQVM: 130 nM (3 of 3 replicates).
EGDSSRYYYAN / GKNNRPS / SSRDHSGFQVW: 16 µM (3 of 3 replicates).
EGDSLRYYCAN / GKNNRPS / SSRYSSGFQVY: 180 nM (3 of 3 replicates).
EGDSLLEYYAN / GKNNRPS / SSRDSSGFQVP: nd (0 of 3 replicates).
EGDSLRYYYAN / GKNNRPS / SSRDSSGFQVS: 89 nM (3 of 3 replicates).
EGDSLRYYHAN / GKNNRVS / SSRDSSGFQVQ: 530 nM (3 of 3 replicates).
EGDKLRYYYAN / GKNNRPS / SSRDSWGFQVQ: 9.9 µM (2 of 3 replicates).
EGDSLQYYYAW / GKNNRPS / SSRDSSGFQVQ: 3.9 µM (2 of 3 replicates).
EGDSLRYYYQN / GKPNRPS / SSRDSSGFQVI: 6.7 µM (1 of 3 replicates).
EGDSLRYYYAN / GKGNRPS / SSRDSSGIQVP: 11 µM (2 of 3 replicates).
EGDSLRYYYAN / GKNNRPS / SSRDSSGFQVR: 1.3 µM (2 of 3 replicates).
EGDSLRYWYAN / GKNNRPS / SSRDSSGFQVN: 600 nM (3 of 3 replicates).

The 4 strongest on average among those seen in every replicate, once more:

CDR-L1,CDR-L2,CDR-L3,apparent Kd,seen in
EGDSLRYYEAN,GHNNRPS,SSRDSSGFQVW,8.2 nM,3 of 3
EGDSLRYYYAN,GKNNRPS,SSRDYSGFDVM,85 nM,3 of 3
EGDSLRYYYAN,GKNNRPS,SSRDSSGFQVS,89 nM,3 of 3
EGDSLRYYYAN,GKNNRPS,SSRDSSKFQVY,110 nM,3 of 3

Reference: Engelhart et al. 2022, doi:10.1038/s41597-022-01779-4. File: FLAb, binding data.